Measurements as given in patent publication US20250122301A1 (IBIO, published 2025).

Target: T1, CD25 on CD25+ cells (SUDHL-1, HEK IL-2 reporter cells, primary human regulatory T cells) (human, UniProt P01589 22-272)
T1 construct: whole, on cells; also called IL-2Ralpha
T1 sequence (looked up): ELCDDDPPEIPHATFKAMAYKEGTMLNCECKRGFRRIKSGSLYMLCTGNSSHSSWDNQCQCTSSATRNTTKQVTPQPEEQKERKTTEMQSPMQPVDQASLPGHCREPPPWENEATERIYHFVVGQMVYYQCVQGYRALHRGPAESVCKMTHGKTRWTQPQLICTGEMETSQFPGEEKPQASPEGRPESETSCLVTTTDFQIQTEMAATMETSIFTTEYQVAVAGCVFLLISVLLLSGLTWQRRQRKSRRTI
Experiment: flow cytometry, dose response on CD25+ SUDHL-1 cells;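 further: antibody binding to cells read as median fluorescence intensity of an AF647 anti-human Fc secondary, DAPI+ dead cells excluded, 20 min on ice, 5-fold dilutions from 10 ug/mL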

EC50: 0.0573 µg/mL
B1: Basiliximab (antibody, V domains shown)
VH: QVQLQQSGTVLARPGASVKMSCKASGYSFTRYWMHWIKQRPGQGLEWIGAIYPGNSDTSYNQKFEGKAKLTAVTSASTAYMELSSLTHEDSAVYYCSRDYGYYFDFWGQGTTLTVSS
VL: QIVSTQSPAIMSASPGEKVTMTCSASSSRSYMQWYQQKPGTSPKRWIYDTSKLASGVPARFSGSGSGTSYSLTISSMEAEDAATYYCHQRSSYTFGGGTKLEIK
